# Read-outs that look alike come from different tables or passages of the source.
# Amino acid sequences for entries named in this document (tags omitted). Residues count along the entry.
# UniProt P42226, whole entry: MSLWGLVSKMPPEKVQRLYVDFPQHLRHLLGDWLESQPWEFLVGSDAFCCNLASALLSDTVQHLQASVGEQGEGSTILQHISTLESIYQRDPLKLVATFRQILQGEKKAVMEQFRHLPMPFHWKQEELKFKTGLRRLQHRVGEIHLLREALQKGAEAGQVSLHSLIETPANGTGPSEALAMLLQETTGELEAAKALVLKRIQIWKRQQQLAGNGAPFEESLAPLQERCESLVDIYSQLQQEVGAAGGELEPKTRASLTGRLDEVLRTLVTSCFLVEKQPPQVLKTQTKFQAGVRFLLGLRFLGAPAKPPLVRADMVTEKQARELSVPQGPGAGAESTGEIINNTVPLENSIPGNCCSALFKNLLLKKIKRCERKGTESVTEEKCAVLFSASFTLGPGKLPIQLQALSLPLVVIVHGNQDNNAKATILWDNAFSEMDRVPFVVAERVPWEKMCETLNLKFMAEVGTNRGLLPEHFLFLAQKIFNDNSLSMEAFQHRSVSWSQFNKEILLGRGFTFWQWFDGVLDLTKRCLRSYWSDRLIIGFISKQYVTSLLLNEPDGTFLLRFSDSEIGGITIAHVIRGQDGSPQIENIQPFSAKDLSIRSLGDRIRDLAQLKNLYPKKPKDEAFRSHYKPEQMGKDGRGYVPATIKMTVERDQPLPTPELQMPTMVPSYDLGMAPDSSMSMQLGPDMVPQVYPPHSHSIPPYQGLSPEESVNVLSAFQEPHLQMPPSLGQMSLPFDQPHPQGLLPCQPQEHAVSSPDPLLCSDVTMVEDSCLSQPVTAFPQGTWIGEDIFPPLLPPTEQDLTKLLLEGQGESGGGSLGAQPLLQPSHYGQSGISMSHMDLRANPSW
# UniProt P42226, 123-632 limits assumed: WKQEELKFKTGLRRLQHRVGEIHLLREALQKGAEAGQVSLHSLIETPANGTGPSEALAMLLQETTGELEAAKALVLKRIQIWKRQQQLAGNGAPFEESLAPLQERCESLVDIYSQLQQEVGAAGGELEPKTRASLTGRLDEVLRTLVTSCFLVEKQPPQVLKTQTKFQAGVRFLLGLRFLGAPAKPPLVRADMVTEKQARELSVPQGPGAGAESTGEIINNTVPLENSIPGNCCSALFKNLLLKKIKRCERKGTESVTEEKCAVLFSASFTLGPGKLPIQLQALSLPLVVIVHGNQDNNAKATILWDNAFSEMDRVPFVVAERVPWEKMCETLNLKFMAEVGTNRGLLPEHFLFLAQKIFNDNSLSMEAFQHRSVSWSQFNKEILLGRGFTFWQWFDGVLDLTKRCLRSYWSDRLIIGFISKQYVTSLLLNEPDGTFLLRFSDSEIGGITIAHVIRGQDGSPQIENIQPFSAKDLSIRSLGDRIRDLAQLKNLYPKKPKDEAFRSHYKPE
# Legend:
# [1] = target: biotinylated truncated STAT6 (123-632)-avi (Homo sapiens, UniProt P42226); test: STAT6 HTRF binding assay; conditions: read-out: STAT6 HTRF: Average IC50, 0.15 nM biotinylated truncated STAT6 (123-632)-avi, 20 nM fluorescein-labeled probe
# [2] = target: STAT6 (Homo sapiens, UniProt P42226); test: STAT6 MSD degradation in A549 cells; conditions: for DC50: read-out: STAT6 MSD degradation DC50 (nM) 24 h
# Outline: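 A549 cells treated with a 9-point 1:3 series (top up to 10 uM) for 4 to 24 hours at 37° C., then lysed in RIPA. STAT6 quantified by sandwich MSD electrochemiluminescence immunoassay. DC50 and Dmax from four-parameter nonlinear fit, reported as letter-code bins.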
Structure (SMILES),IC50 ([1]; 30 minutes at room temperature) [nM],STAT6 MSD degradation Dmax % 24 h [2],DC50 [2] [nM],IC50 ([1]; HTRF binding) [nM]
CN(C)C(=O)c1cc2cc(C3=CCCN(C(=O)CCn4ccnn4)C3)cc(N3CC(C(=O)N4CCC(CN5CCN(c6cccc(C7CCC(=O)NC7=O)c6)CC5)CC4)C3)c2o1 (stereo not drawn),< 100,A (A (>90%)),1 to 10,
CN(C)C(=O)c1cc2c(-c3ccc(N4CCN(c5ccc(C6CCC(=O)NC6=O)cc5F)CC4)cc3)cc(C3=CCCN(C(=O)CCn4cccn4)C3)c(F)c2[nH]1 (stereo not drawn),,A (A (>90%)),< 1,< 100
COc1cc(N2CC[C@@H](c3ccc(-c4cc(C5=CCCN(C(=O)CCn6cccn6)C5)c(F)c5[nH]c(C(=O)N(C)C)cc45)c(C)c3)C(F)(F)C2)c(F)cc1NC1CCC(=O)NC1=O (stereo partly drawn),,A (A (>90%)),< 1,< 100
Cc1nn(C2CCC(=O)NC2=O)c2cccc(CCN3CCN(c4ccc(-c5cc([C@H]6CCCN(C(=O)CCn7cccn7)C6)c(F)c6[nH]c(C(=O)N(C)C)cc56)c(F)c4F)CC3)c12 (stereo partly drawn),,A (A (>90%)),< 1,< 100
CC(=O)N1CCC=C(c2cc(-c3ccc(C4CCN(c5cccc6c5n(C)c(=O)n6C5CCC(=O)NC5=O)CC4)cc3)c3cc(C(=O)N(C)C)[nH]c3c2F)C1 (stereo not drawn),,A (A (>90%)),1 to 10,1000 to 10000
CC(C)C(=O)N1CCC=C(c2cc(-c3ccc(N4CCN(C5CCN(c6cccc7c6n(C)c(=O)n7C6CCC(=O)NC6=O)CC5)CC4)cc3)c3cc(C(=O)N(C)C)[nH]c3c2F)C1 (stereo not drawn),,B (B (>70-90%)),1 to 10,100 to 1000
Cc1cc(C2CCN(c3cccc4c3n(C)c(=O)n4C3CCC(=O)NC3=O)CC2)ccc1-c1cc(C2=CCCN(C(=O)[C@@H](C)Cn3cccn3)C2)c(F)c2[nH]c(C(=O)N(C)C)cc12 (stereo partly drawn),,C (C (>50-70%)),1 to 10,10000 to 100000
CC(C)C(=O)N1CCC=C(c2cc(-c3ccc(N4CCN(CCc5cccc6c5n(C)c(=O)n6C5CCC(=O)NC5=O)CC4)cc3OC(F)F)c3cc(C(=O)N(C)C)[nH]c3c2F)C1 (stereo not drawn),100 to 1000,A (A (>90%)),< 1,
COc1cc(N2CCN(c3ccc(-c4cc(C5=CCCN(C(=O)CCn6cccn6)C5)c(F)c5[nH]c(C(=O)N(C)C)cc45)c(Cl)c3F)CC2)c(F)cc1NC1CCC(=O)NC1=O (stereo not drawn),,A (A (>90%)),< 1,< 100
CN(C)C(=O)c1cc2c(-c3ccc(N4CCN(C5CCN(c6ccc(C7CCC(=O)NC7=O)cc6F)CC5)CC4)cc3)cc(C3=CCCN(C(=O)CCn4cccn4)C3)c(F)c2[nH]1 (stereo not drawn),,A (A (>90%)),< 1,< 100
COc1cc(N2CCC(c3ccc(-c4cc(C5=CCCN(C(=O)CCn6cccn6)C5)c(F)c5sc(C(=O)N(C)C)cc45)cc3)CC2)c(F)cc1NC1CCC(=O)NC1=O (stereo not drawn),,B (B (>70-90%)),10 to 100,1000 to 10000
Cn1c(=O)n(C2CCC(=O)NC2=O)c2cccc(C3CC(N4CCN(c5ccc(-c6cc([C@H]7CCCN(C(=O)CCn8cccn8)C7)c(F)c7[nH]c(C(=O)N8CCC8)cc67)cc5)CC4)C3)c21 (stereo partly drawn),,A (A (>90%)),< 1,100 to 1000
C[C@H](Cn1cccn1)C(=O)N1CCC=C(c2cc(-c3ccc(C4CCN(c5ccc(NC6CCC(=O)NC6=O)cc5F)CC4)cc3)c3cc(C(=O)N(C)C)[nH]c3c2F)C1 (stereo partly drawn),,B (B (>70-90%)),1 to 10,100 to 1000
COc1cc(N2CCC(N3CCN(c4ccc(-c5cc([C@@H]6CCCN(C(=O)CCn7cccn7)C6)c(F)c6[nH]c(C(=O)N(C)C)cc56)cc4)CC3)CC2)c(F)cc1NC1CCC(=O)NC1=O (stereo partly drawn),,C (C (>50-70%)),10 to 100,1000 to 10000
CC(C)C(=O)N1CCC=C(c2cc(-c3cc(F)c(N4CCN(CCc5cccc6c5n(C)c(=O)n6C5CCC(=O)NC5=O)C[C@H]4C)cc3F)c3cc(C(=O)N(C)C)[nH]c3c2F)C1 (stereo partly drawn),,A (A (>90%)),< 1,1000 to 10000

# Reference: patent publication US20260124309A1, “STAT6 DEGRADERS AND USES THEREOF” (Kymera Therapeutics, Inc., priority 2023, published 2026)
